One experiment relates to neutrophils. In words: Neutrophil superoxide production, lucigenin chemiluminescence assay. The class given is cell-based, human. As to conditions: agent alone as stimulus. How it is done:
Neutrophils were pre-treated with varying concentrations of SB203580 for 30 min and then exposed to 10 μM TNF70-80. The lucigenin enhanced chemiluminescence produced by the cells was measured in a luminometer. The peak initial rate of chemiluminescence produced is presented as the mean±sem of six experiments. The response in the presence of the inhibitor is expressed as a % of the control response. Statistical analyses, *p<0.05 and **P<0.01 when compared with control response.
Neutrophil superoxide production was measured as the chemiluminescence generated by the reduction of lucigenin, essentially as described previously (Kumaratilake, L. M., Rathjen, D. A., Mack, P., Widmer, F., Prasertsiriroj, V., and Ferrante, A. (1995) J. Clin. Invest. 95: 2315-2323). Briefly, to 1×10^6 neutrophils in 400 μl of HBSS was added 100 μl of stimulus and 500 μl of 250 μg/ml of lucigenin. The chemiluminescence was measured in a luminometer (Berthold Technologies, Bad Wildbad, Germany) over a 20 min period and the data imported into Microsoft Excel (Redmond, Wash.). […]

For a further experiment, the system named is ERK1/ERK2. In words: ERK1/ERK2 activity in WEHI-164 cells. As to conditions: 15 mins; TNF 1000 U/ml, TNF132-150 100 μg/ml. The class given is cell-based. How it is done:
The level of myelin basic protein phosphorylation was quantitated by an Instant Imager. A representative radiogram from the Instant Imager and pooled data (means±SEM of 3 experiments) are shown.
WEHI-164 cells were cultured in 28 cm^2 dishes to approx 80% confluence before the desired treatment. […] After washing twice with cold HBSS, cells were harvested by scraping and lysed in 400 μl of buffer A (20 mM HEPES, pH 7.4, 0.5% (v/v) Nonidet P-40, 100 mM NaCl, 1 mM EDTA, 2 mM Na3VO4, 2 mM dithiothreitol, 1 mM phenylmethylsulfonyl fluoride, and 10 μg/ml Sigma 104, leupeptin, aprotonin, pepstatin A, and benzamidine) for 2 h at 4° C. with constant mixing (Hii et al. (1998) J Biol Chem. 273(30):19277-82). After centrifugation (12,000 g×5 min), the supernatants were collected and the protein content of the lysates was determined by Lowry's method of protein determination. A solid phase assay using glutathione-S-transferase (GST)-conjugated-jun (1-79) was employed to assay JNK activity (Hii et al. (1998) J Biol Chem. 273(30):19277-82) GST-jun (1-79) was fractionated on 12% SDS polyacrylamide gels and the bands were detected and radioactivity determined using an Instant Imager (Packard Instruments, Canberra, Australia). […]

For the substance “TNF: Human recombinant TNF produced by Genentech, Inc.”, in the experiment with neutrophils, the “stimulation of neutrophil respiratory burst / superoxide production” value is on record as “stimulated a respiratory burst”. In addition, the “ERK1/ERK2 activation in WEHI-164 cells” value in the experiment on ERK1/ERK2 is given as “able to activate all three MAP kinases”.

The record behind these values is patent US8268635B2, “Methods of identifying agents that selectively activate p38 and/or NKkB signaling” (priority 2006, dated 2012).
